PubChem BioAssay AID2105 (Johns Hopkins Ion Channel Center, 2009)
The entries are a selection whose mix differs from that of the whole data set. Active and inactive are the calls of the source.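 How the source made its calls: active means dye signal at least 3 control SD above or below untreated wells in both duplicates, raw fluorescence within 3, either direction; inactive means the rest.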

Test: parental HEK293 cell activity, no Kir2.1 – FluxOR thallium flux, duplicate, single concentration, counter-screen for Kir2.1 inhibitor project, confirmation (AID 2105)
Details: parental HEK293 cells, FluxOR thallium flux fluorescence; at 10 µM

| Compound | outcome |
| --- | --- |
| c1ccc(CN2CCC(Nc3ccccc3)CC2)cc1 | inactive |
